The structures appear in SMILES notation. The entries are a selection whose mix differs from that of the whole data set. The source made the active and inactive calls. Calls come from the whole dose curve; as a rule, active = well fitted inhibition curve with a large enough effect; inconclusive = small, poorly fitted or top-dose-only effect; inactive = flat fitted curve, though single readings scatter.
Potency is the fitted concentration of half-maximal effect.

The assay in a line: qHTS for Inhibitors of Vif-A3F Interactions: qHTS. Note: nearly all actives have a fitted effect of over 65% in size. The settings on record: HeLa A3F-eYFP + Vif (tagged APOBEC3F with the HIV-1 protein that degrades it), YFP fluorescence increase. The text has this:
The recent discovery and characterization of host restriction factors, which provide a potent defense to invading retroviruses, has provided new targets for antiviral drug development. APOBEC3G (A3G) and APOBEC3F (A3F) are potent cytidine deaminases that block HIV-1 replication; HIV-1 expresses the Vif protein, which counteracts A3G and A3F by binding to them and inducing their proteasomal degradation. The Vif-A3G and Vif-A3F interactions provide two potential targets for development of small molecules which can interfere with the ability of Vif to degrade A3G or A3F. […] To identify inhibitors that can interfere with Vif mediated degradation of A3G and A3F, we have developed Hela cell lines that stably express A3G or A3F tagged with eYFP at the C-terminal end (A3G-eYFP or A3F-eYFP, respectively) and Vif. In the absence of an inhibitor, Vif induces degradation of A3G-eYFP and A3F-eYFP, and the cells are not fluorescent. In the presence of an inhibitor, it is expected that Vif will be unable to degrade A3G-eYFP and/or A3F-eYFP, resulting in an increase in yellow fluorescence. In this assays Vif A3F was screened against the Molecular Library Small Molecule Repository (MLSMR). […]
5 uL of 700 cells/well of A3F-YFP cells are dispensed into black, clear bottom plates. […] The plates are incubated overnight at 37 deg C and then read on the TTP Acumen (Ex 488/ Em 500-530).
For orientation: In qHTS, concentration-response curves come from the screen itself.
As to `CC[n+]1c(/C=C/N(C)c2ccccc2)oc2ccccc21`, the Potency was active: 10 µM.

The values are drawn from PubChem BioAssay AID602313 (National Center for Advancing Translational Sciences (NCATS), 2012).
